In US8729061B2, “Pyrrolidine derivatives” (Hoffmann-La Roche Inc., priority 2011, dated 2014) one finds IC50 data, which are given here for 8 compounds.

Sequences of proteins named here, by UniProt entry; tags and fusion partners are left off. Residues count along the entry.
UniProt P25774, 115-331: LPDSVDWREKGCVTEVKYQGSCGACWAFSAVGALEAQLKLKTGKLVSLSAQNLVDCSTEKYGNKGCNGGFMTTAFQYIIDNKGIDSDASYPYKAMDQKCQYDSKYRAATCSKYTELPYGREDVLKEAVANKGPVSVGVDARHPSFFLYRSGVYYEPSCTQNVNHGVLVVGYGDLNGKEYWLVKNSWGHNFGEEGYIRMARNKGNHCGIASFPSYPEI
UniProt P43235, 115-329: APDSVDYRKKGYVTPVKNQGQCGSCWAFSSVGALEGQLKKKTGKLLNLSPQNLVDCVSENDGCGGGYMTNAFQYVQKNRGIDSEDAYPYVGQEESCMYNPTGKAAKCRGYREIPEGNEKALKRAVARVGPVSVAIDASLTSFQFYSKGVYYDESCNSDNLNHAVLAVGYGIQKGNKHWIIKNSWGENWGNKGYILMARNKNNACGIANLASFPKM
UniProt P07711, 114-333: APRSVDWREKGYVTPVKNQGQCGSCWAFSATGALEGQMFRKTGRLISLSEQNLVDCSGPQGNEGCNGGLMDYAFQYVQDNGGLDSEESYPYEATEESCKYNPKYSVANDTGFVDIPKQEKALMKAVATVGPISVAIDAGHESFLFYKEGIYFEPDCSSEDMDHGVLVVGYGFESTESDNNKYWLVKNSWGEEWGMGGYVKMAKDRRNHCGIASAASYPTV

Holding throughout (format): biochemical
Assay [1] has as its target human Cat B (Homo sapiens (Human), UniProt P07858). Description: Cathepsin enzyme inhibition assay (fluorogenic peptide substrate), Cat B. To be noted: enzyme 1 nM, substrate Z-Val-Val-Arg-AMC 20 μM, pH 6.5. As for the experimental part:
(§1) Enzyme activity is measured by observing the increase in fluorescence intensity caused by cleavage of a peptide substrate containing a fluorophore whose emission is quenched in the intact peptide.
(§2) Assay buffer: 100 mM potassium phosphate pH 6.5, EDTA-Na 5 mM, Triton X-100 0.001%, DTT 5 mM.
(§3) Enzymes (all at 1 nM): human and mouse Cathepsin S, Cat K, Cat B, Cat L. Substrate (20 μM): Z-Val-Val-Arg-AMC, except for Cat K which uses Z-Leu-Arg-AMC (both from Bachem).
(§4) Excitation 360 nm, Emission 465 nm.
(§5) Enzyme is added to the substance dilutions in 96-well microtitre plates and the reaction is started with substrate. Fluorescence emission is measured over 20 minutes, during which time a linear increase is observed in the absence of inhibitor. IC50 are calculated by standard methods. Inhibition of human Cat S, mouse Cat S, human Cat K, mouse Cat K, human Cat B, mouse Cat B, human Cat L and mouse Cat L have been measured separately. The results obtained for human Cat S, L, K and B for representative compounds of the invention are expressed in the following table in μM.

In assay [2] the target is human Cathepsin S (Homo sapiens (Human), UniProt P25774). Description: Cathepsin enzyme inhibition assay (fluorogenic peptide substrate), Cat S. To be noted: enzyme 1 nM, substrate Z-Val-Val-Arg-AMC 20 μM, pH 6.5. As for the experimental part: as §1, §2, §3, §4, §5
In assay [3] the target is human Cat K (Homo sapiens (Human), UniProt P43235). The assay can be described thus: Cathepsin enzyme inhibition assay (fluorogenic peptide substrate), Cat K. The note with it: enzyme 1 nM, substrate Z-Leu-Arg-AMC 20 μM, pH 6.5. As for the experimental part: as §1, §2, §3, §4, §5
The target of assay [4] is human Cat L (Homo sapiens (Human), UniProt P07711). The assay can be described thus: Cathepsin enzyme inhibition assay (fluorogenic peptide substrate), Cat L. To be noted: enzyme 1 nM, substrate Z-Val-Val-Arg-AMC 20 μM, pH 6.5. As for the experimental part:
as §1, §2, §3, §4
Enzyme is added to the substance dilutions in 96-well microtitre plates and the reaction is started with substrate. […] IC50 are calculated by standard methods. Inhibition of human Cat S, mouse Cat S, human Cat K, mouse Cat K, human Cat B, mouse Cat B, human Cat L and mouse Cat L have been measured separately.

As for `CC[C@H](NC(=O)[C@@H]1C[C@@H](S(=O)(=O)c2ccccc2Cl)CN1C(=O)C1(c2ccc(I)cc2)CC1)C(=O)C(=O)NC1CC1` [Example 17, (2S,4R)-4-(2-chlorophenylsulfonyl)-N—((S)-1-(cyclopropylamino)-1,2-dioxopentan-3-yl)-1-(1-(4-iodophenyl)cyclopropanecarbonyl)pyrrolidine-2-carboxamide], the midpoint of inhibition in assay [1], the IC50, lay at 0.107 µM.
As to `CC(C)[C@H](NC(=O)[C@@H]1C[C@@H](S(=O)(=O)c2ccccc2Cl)CN1C(=O)C1(c2ncc(Cl)cc2F)CC1)C(=O)C(=O)NC1CC1` [Example 58, (2S,4R)-1-(1-(5-chloro-3-fluoropyridin-2-yl)cyclopropanecarbonyl)-4-(2-chlorophenylsulfonyl)-N—((S)-1-(cyclopropylamino)-4-methyl-1,2-dioxopentan-3-yl)pyrrolidine-2-carboxamide], the IC50 (usually the concentration that gives 50% inhibition) in assay [2] worked out at 0.000478 µM.
In assay [3], `CC(C)[C@H](NC(=O)[C@@H]1C[C@@H](S(=O)(=O)c2ccccc2Cl)CN1C(=O)C1(c2ccc(Cl)cc2)CC1)C(=O)C(=O)NC1CC1` [Example 28, (2S,4R)-1-(1-(4-chlorophenyl)cyclopropanecarbonyl)-4-(2-chlorophenylsulfonyl)-N—((S)-1-(cyclopropylamino)-4-methyl-1,2-dioxopentan-3-yl)pyrrolidine-2-carboxamide] displayed an IC50 of 0.0382 µM. This lies in the double-digit nanomolar range.
In turn, `CCC[C@H](NC(=O)[C@@H]1C[C@@H](S(=O)(=O)c2ccc(Cl)cc2Cl)CN1C(=O)C1(c2ccc(Cl)cc2)CC1)C(=O)C(=O)NC1CC1` [Example 42, (2S,4R)-1-(1-(4-chlorophenyl)cyclopropanecarbonyl)-N—((S)-1-(cyclopropylamino)-1,2-dioxohexan-3-yl)-4-(2,4-dichlorophenylsulfonyl)pyrrolidine-2-carboxamide] registered a concentration for half-maximal inhibition (IC50) in assay [4] of 0.0117 µM. That is a double-digit nanomolar value.
Regarding `CC[C@H](NC(=O)[C@@H]1C[C@@H](S(=O)(=O)c2ccccc2C(F)(F)F)CN1c1ccccc1[N+](=O)[O-])C(=O)c1nc2ccccc2o1` [Example 5, (2S,4R)-1-(2-Nitro-phenyl)-4-(2-trifluoromethyl-benzenesulfonyl)-pyrrolidine-2-carboxylic acid [(S)-1-(benzooxazole-2-carbonyl)-propyl]-amide], the IC50 in assay [3] is 25 µM.
For `CCCCNC(=O)C(=O)[C@H](CC)NC(=O)[C@@H]1C[C@@H](S(=O)(=O)c2ccccc2Cl)CN1C(=O)C1(c2ccc(Cl)cc2)CC1` [Example 31, (2S,4R)—N—((S)-1-(butylamino)-1,2-dioxopentan-3-yl)-1-(1-(4-chlorophenyl)cyclopropanecarbonyl)-4-(2-chlorophenylsulfonyl)pyrrolidine-2-carboxamide], the half-inhibitory concentration (IC50) in assay [2] turned out to be 0.000827 µM.
`CCNC(=O)C(=O)[C@H](CC)NC(=O)[C@@H]1C[C@@H](S(=O)(=O)c2ccccc2Cl)CN1C(=O)C1(c2ccc(Cl)cc2)CC1` [Example 43, (2S,4R)-1-(1-(4-chlorophenyl)cyclopropanecarbonyl)-4-(2-chlorophenylsulfonyl)-N—((S)-1-(ethylamino)-1,2-dioxopentan-3-yl)pyrrolidine-2-carboxamide] displayed an IC50 in assay [3] of 0.161 µM. This counts as sub-micromolar.
As to `CC[C@H](NC(=O)[C@@H]1C[C@@H](S(=O)(=O)c2ccc(Cl)cc2C)CN1C(=O)OC(C)(C)C)C(=O)C(=O)NC1CC1` [Example 2, (2S,4R)-tert-butyl 4-(4-chloro-2-methylphenylsulfonyl)-2-((S)-1-(cyclopropylamino)-1,2-dioxopentan-3-ylcarbamoyl)pyrrolidine-1-carboxylate], half-maximal inhibition in assay [2] (IC50) was put at 0.00112 µM.
